Data on eight molecules can be found in the CATMoS acute toxicity set (Mansouri et al. 2021).

One data set is described as follows: rat acute oral toxicity. Conditions: in vivo.
With `O=c1ccc2ccccc2o1`, the LD50 (commonly the dose at which mortality reaches 50%) turned out to be 290 mg/kg.

Molecule `CC(=O)Nc1ccc(O)cc1` yielded an LD50 of 1940 mg/kg.

Molecule `CC1CCC(C(C)C)C(O)C1` (stereo not drawn) gave an LD50 of 2050 mg/kg.

In the case of `O=C(OCc1ccccc1)c1ccccc1`, the LD50 came out at 1700 mg/kg.

In turn, `COc1cc(C=O)ccc1O` yielded an LD50 of 1790 mg/kg.

Another data set is described as follows: GHS categories as the set defines them, by LD50: 1 up to 5, 2 up to 50, 3 up to 300, 4 up to 2000, 5 above 2000 mg/kg. Conditions: rat; in vivo; po.
The molecule `CO/N=C(\C(=O)N[C@@H]1C(=O)N2C(C(=O)[O-])=C(C[n+]3cccc4c3CCC4)CS[C@H]12)c1csc(N)n1` yielded a GHS category of 5.

Take `CC(=O)OCC=C(C)CCC=C(C)C`: the GHS category is given as 5.

Molecule `N[C@H](C(=O)O)[C@@H](O)c1ccc(O)c(O)c1` showed a GHS category of 5.
